Consider 1 compound from patent US9932349B2 (priority 2000, dated 2018).

Sequences of proteins named here, by UniProt entry; tags and fusion partners are left off. A change or cut given only in a name is not applied to a line headed by its entry. Residues count along the entry.
UniProt A0A286XTF2, 1-366: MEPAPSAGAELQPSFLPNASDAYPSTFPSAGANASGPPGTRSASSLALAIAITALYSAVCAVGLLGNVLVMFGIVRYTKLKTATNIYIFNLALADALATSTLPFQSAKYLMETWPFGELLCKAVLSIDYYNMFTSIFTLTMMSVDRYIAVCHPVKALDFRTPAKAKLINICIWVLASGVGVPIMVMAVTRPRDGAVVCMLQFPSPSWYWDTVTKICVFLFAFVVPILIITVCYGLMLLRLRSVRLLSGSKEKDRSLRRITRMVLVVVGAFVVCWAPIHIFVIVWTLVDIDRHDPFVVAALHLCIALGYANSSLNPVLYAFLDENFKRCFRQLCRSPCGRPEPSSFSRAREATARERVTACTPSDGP

This assay concerns the target T1, δ opioid receptor (Cavia porcellus, UniProt A0A286XTF2).
T1 construct: determined in guinea pig brain cells; from tissue; host or cells: guinea pig brain
Nature of the assay: biochemical. The format is binding, guinea pig. The settings on record: [3H]Naltrindole (δ).

With `Oc1ccc2c3c1O[C@H]1c4[nH]c5ccccc5c4C[C@@]4(O)[C@@H](C2)N(CC2CC2)CC[C@]314` [naltrindole (3-OH), Naltrindole, reference compound], the inhibitory constant (Ki) (in general, a dissociation constant, usually derived from enzyme kinetics or from competition with a known ligand) was found to be 0.13 ± 0.02 nM.
